This data set has as its system L-pyroglutamyl-L-prolyl-L-arginine-p-nitroaniline hydrochloride.

As for Thrombin (Sigma, T-3399), the Km result is “thrombin 188mU/mL, Km=106.2 µM”. With Trypsin (ICN / MP Biomedicals, #103140) the figure was 0.4 nM trypsin, Km=78.6 µM.

Values taken from US20140127127.
